Consider one molecule from publication PMC7126328 (Bioorganic & Medicinal Chemistry, 2013).

Molecules are shown by their SMILES.

Data set [1] deals with E. coli/pRAC-gfp. The conditions noted are these: 150 μM.
Data set [2] deals with E. coli/pET36b-gfp. The conditions noted are these: 150 μM.

As to `CC[N+](C)(CC)CC/N=C1\C[C@H]2CC[C@]1(C)C2(C)C` [Compound 4a, N,N-Diethyl-N-methyl-2-((E)-((1R,4R)-1,7,7-trimethylbicyclo[2.2.1]heptan-2-ylidene)amino)ethanaminium iodide], the “Toxic and mutagenic effects on indicator cells E. coli/pRAC-gfp (in words)” value in data set [1] is given as “neither toxic nor mutagenic effects”. Further, the “Toxic and mutagenic effects on indicator cells E. coli/pET36b-gfp (in words)” value in data set [2] was “neither toxic nor mutagenic effects”.
